Experimental data taken from patent publication EP0590919A1, “Therapeutic agents for parkinson's disease” (KYOWA HAKKO KOGYO CO., LTD., priority 1992, dated 1994).

The chains behind the UniProt entries cited, without tags or fusion partners.
UniProt P47745, whole entry: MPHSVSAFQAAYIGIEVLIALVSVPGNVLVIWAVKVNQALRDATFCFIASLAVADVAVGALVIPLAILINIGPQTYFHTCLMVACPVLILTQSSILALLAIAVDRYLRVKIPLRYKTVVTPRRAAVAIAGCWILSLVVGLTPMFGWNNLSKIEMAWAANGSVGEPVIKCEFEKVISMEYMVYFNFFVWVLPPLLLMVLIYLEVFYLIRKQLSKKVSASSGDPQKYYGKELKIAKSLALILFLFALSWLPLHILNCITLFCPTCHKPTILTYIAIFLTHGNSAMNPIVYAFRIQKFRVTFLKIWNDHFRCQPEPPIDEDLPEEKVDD

Molecular target: T1, A₁ receptor (Cavia porcellus, UniProt P47745)
T1 construct: Cerebrum of a guinea pig was suspended in ice-cooled 50 mM Tris; from tissue; host or cells: guinea pig cerebrum membrane preparation
Assay: Adenosine A₁ receptor binding test (³H-CHA binding)
Set-up: species or system guinea pig
Details: read-out: Inhibition (%) A₁ Receptor

SMILES	inhibition at 10 µM	inhibition at 100 µM
CCn1c(=O)c2c(nc(/C=C/c3ccc(OC)c(OC)c3)n2C)n(CC)c1=O [Compound 2, (E)-8-(3,4-Dimethoxystyryl)-1,3-diethyl-7-methylxanthine]	67%	62%
CCn1c(=O)c2c(nc(/C=C/c3ccc(OC)c(C)c3OC)n2C)n(CC)c1=O [Compound 14, (E)-8-(2,4-Dimethoxy-3-methylstyryl)-1,3-diethyl-7-methylxanthine]	84%	86%
